We go through 1 compound from patent US20260248717A1, “METHOD OF TREATING LOWER TRACT UROTHELIAL CANCER” (TARIS Biomedical LLC, priority 2016, published 2026).

A short description of the data set: Tolerability of gemcitabine bladder perfusion in the orthotopic rat model. As to conditions: high dose treatment of gemcitabine (350 μg/ml).

Consider `Nc1ccn([C@@H]2O[C@H](CO)[C@@H](O)C2(F)F)c(=O)n1` [gemcitabine, 2′,2′-difluorodeoxycytidine], for which the mortality is listed as 2/6.
